Measurements: patent US20160016998A1, “HIGH-AFFINITY MATRIPTASE INHIBITORS” (MERCK PATENT GMBH, priority 2013, published 2016)

Target: T1, matriptase (Homo sapiens, UniProt Q9Y5Y6)
T1 construct: made in house
T1 sequence (Q9Y5Y6 615-855 limits assumed): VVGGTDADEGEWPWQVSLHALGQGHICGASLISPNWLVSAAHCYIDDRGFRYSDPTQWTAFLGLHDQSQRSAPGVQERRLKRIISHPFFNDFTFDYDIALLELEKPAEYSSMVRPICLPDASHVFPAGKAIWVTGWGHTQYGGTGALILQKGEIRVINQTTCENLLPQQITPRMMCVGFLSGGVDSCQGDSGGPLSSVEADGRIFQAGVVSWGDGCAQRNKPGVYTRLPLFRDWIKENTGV
Experiment: Matriptase enzyme inhibition assay with chromogenic substrate Boc-QAR-pNA
Format: biochemical
Experimental: Recombinant production, autocatalytic activation and purification of matriptase were conducted as previously described. Bovine trypsin was purchased from Sigma-Aldrich. Active-site titration and determination of Michaelis-Menten constants KM for the chromogenic substrate Boc-QAR-pNA was performed as reported earlier.
All experiments were performed in triplicate. […] Slopes of the initial reaction velocities (steady-state) were calculated and normalized to the data of the uninhibited enzymatic hydrolysis of Boc-QAR-pNA. The determined v/v0 values were plotted against the concentration of the inhibitor.
Errors were calculated through propagation of errors (compare Tischler et al.).[17]

Compound | Ki [µM] | ΔBG(x) − ΔBG(SFTI-1[1, 14]) (difference in free energy of binding/dissociation, ΔBG = −RTlnKi, matriptase, pH 7.6 (Table 1)) [kcal/mol] | matriptase affinity / inhibitor potency in words (enzyme inhibition assays, pH 7.6, comparator as worded) | Relative Activity (ratio Ki of compound / Ki of SFTI-1[1,14], matriptase, pH 7.6 (Table 1))
CC[C@H](C)[C@@H]1NC(=O)[C@@H]2CCCN2C(=O)[C@@H]2CCCN2C(=O)[C@H]([C@@H](C)CC)NC(=O)[C@H](CO)NC(=O)[C@H](CCCCN)NC(=O)[C@H]([C@@H](C)O)NC(=O)[C@@H](NC(=O)[C@H](CCCNC(=N)N)NC(=O)CN)CSSC[C@@H](C(=O)N[C@H](C(=O)N2CCC[C@H]2C(=O)N[C@@H](CC(=O)O)C(=O)O)C(C)C)NC1=O [Compound 20] | 0.58 ± 0.072 | – | – | –
CC[C@H](C)[C@@H]1NC(=O)[C@@H]2CCCN2C(=O)[C@@H]2CCCN2C(=O)[C@H]([C@@H](C)CC)NC(=O)[C@H](CO)NC(=O)[C@H](CCCCN)NC(=O)[C@H]([C@@H](C)O)NC(=O)[C@@H](NC(=O)[C@H](CCCNC(=N)N)NC(=O)CN)CSSC[C@@H](C(=O)N[C@H](C(=O)N2CCC[C@H]2C(=O)N[C@@H](CC(=O)O)C(=O)O)[C@@H](C)CC)NC1=O [Compound 21] | 0.319 ± 0.04 | 0.478 ± 0.096 | beneficial effect | 0.45
